The values that follow are results of earlier work, collected in US20190119649A1, “METHODS FOR GENERATING AUGMENTED STEM CELL-DERIVED BETA CELLS AND USES THEREOF” (President and Fellows of Harvard College, priority 2014, published 2019).

The chains behind the UniProt entries cited, without tags or fusion partners. Residues count along the entry.
UniProt P30530, 26-894 limits assumed: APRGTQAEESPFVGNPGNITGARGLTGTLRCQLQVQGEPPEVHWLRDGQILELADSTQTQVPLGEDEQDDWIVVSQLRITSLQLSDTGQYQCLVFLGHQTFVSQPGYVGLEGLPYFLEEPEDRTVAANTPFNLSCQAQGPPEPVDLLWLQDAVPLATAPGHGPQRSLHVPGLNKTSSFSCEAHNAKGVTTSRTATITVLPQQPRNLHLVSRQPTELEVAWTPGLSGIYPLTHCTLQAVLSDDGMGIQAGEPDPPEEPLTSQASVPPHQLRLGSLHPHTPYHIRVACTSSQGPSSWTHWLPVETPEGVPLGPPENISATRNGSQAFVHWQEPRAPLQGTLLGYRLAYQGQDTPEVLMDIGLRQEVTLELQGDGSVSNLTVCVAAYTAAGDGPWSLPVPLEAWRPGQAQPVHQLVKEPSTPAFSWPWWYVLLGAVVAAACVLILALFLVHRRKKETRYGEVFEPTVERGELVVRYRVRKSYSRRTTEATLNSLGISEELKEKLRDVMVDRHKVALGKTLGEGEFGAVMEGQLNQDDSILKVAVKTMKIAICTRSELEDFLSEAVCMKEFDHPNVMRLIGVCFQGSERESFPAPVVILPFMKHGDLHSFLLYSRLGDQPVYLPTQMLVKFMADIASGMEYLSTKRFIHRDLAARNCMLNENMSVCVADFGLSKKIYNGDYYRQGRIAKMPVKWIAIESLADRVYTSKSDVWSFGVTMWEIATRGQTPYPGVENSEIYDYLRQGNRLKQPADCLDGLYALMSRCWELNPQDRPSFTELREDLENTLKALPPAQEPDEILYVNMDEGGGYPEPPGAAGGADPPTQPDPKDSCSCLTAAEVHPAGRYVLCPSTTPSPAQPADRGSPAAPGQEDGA

Each structure is given as a SMILES string.

The target in one data set is T1, AXL kinase (Homo sapiens, UniProt P30530). As to conditions: read-out: AXL kinase IC50; 5-alkylpyrimidine-based inhibitors, Table 1; cited from earlier work.
On to `Cc1cnc(Nc2ccc(N(C)C3CCN(C)CC3)cc2)nc1-c1ccc(F)c(Cl)c1`, for which the IC50 is 420 nM.
With `Cc1cnc(Nc2ccc(CN3CCN(C)CC3)cc2)nc1-c1ccc(C(C)(C)C#N)cc1`, the IC50 is 290 nM.
On to `Cc1cnc(Nc2ccc(CN3CCN(C)CC3)cc2)nc1-c1cccc(Cl)c1`, for which the 50% inhibitory concentration (IC50) is 440 nM.

The same data set, now with this note: read-out: AXL kinase IC50; amide- and sulfonamide-containing inhibitors, Table 2; cited from earlier work.
In the case of `CN1CCN(Cc2ccc(Nc3ncc(Cl)c(N(C)c4ccc(F)cc4S(=O)(=O)N4CCCC4)n3)cc2)CC1`, the half-inhibitory concentration (IC50) is 3910 nM.
For `CN1CCN(Cc2ccc(Nc3ncc(Cl)c(Nc4ccc(O)cc4S(=O)(=O)N4CCCC4)n3)cc2)CC1`, the IC50 was 1320 nM.
For `CN1CCN(Cc2ccc(Nc3ncc(F)c(-c4ccc(F)cc4S(=O)(=O)N4CCCC4)n3)cc2)CC1`, the IC50 is 1150 nM.

The target in the next data set is T1, AXL kinase. The settings on record: amide- and sulfonamide-containing inhibitors, Table 2; cited from earlier work.
Regarding `CN1CCN(Cc2ccc(Nc3ncc(Cl)c(Nc4ccc(O)cc4S(=O)(=O)N4CCCC4)n3)cc2)CC1`, the Binding energy was -29.21 kcal/mol.
As for `CN1CCN(Cc2ccc(Nc3ncc(Cl)c(-c4ccc(F)cc4S(=O)(=O)N4CCCC4)n3)cc2)CC1`, the Binding energy is -40.96 kcal/mol.
As for `CN1CCN(Cc2ccc(Nc3ncc(Cl)c(Nc4ccccc4C(=O)N(C)C)n3)cc2)CC1`, the Binding energy is -33.29 kcal/mol.
Turning to `CN1CCN(Cc2ccc(Nc3ncc(Cl)c(Nc4ccccc4S(=O)(=O)N4CCCC4)n3)cc2)CC1`, the Binding energy is -49.89 kcal/mol.
Turning to `CN1CCN(Cc2ccc(Nc3ncc(F)c(-c4ccc(F)cc4S(=O)(=O)N4CCCC4)n3)cc2)CC1`, the Binding energy was -29.67 kcal/mol.
`CN1CCN(Cc2ccc(Nc3ncc(Cl)c(Nc4ccccc4C(=O)N4CCCC4)n3)cc2)CC1`: the Binding energy was -38.12 kcal/mol.
On to `Cc1cnc(Nc2ccc(CN3CCN(C)CC3)cc2)nc1-c1ccc(F)cc1S(=O)(=O)N1CCCC1`, for which the Binding energy is -29.14 kcal/mol.
Regarding `CN1CCN(Cc2ccc(Nc3ncc(Cl)c(Nc4ccc(F)cc4S(=O)(=O)N4CCCC4)n3)cc2)CC1`, the Binding energy was -37.87 kcal/mol.
For `CN1CCC(N(C)c2ccc(Nc3ncc(Cl)c(Nc4ccccc4S(=O)(=O)N(C)C)n3)cc2)CC1`, the Binding energy is -36.84 kcal/mol.
On to `CN1CCN(c2ccc(Nc3ncc(Cl)c(Nc4ccccc4S(=O)(=O)N(C)C)n3)cc2)CC1`, for which the Binding energy is -29.34 kcal/mol.
As for `CN1CCN(Cc2ccc(Nc3ncc(C(F)(F)F)c(Nc4ccccc4C(=O)N(C)C)n3)cc2)CC1`, the Binding energy was -26.21 kcal/mol.
Regarding `CN1CCN(Cc2ccc(Nc3ncc(Cl)c(-c4ccc(F)cc4S(=O)(=O)N(C)C)n3)cc2)CC1`, the Binding energy was -41.87 kcal/mol.
As for `CN1CCN(Cc2ccc(Nc3ncc(Cl)c(Nc4ccccc4C(=O)NC4CC4)n3)cc2)CC1`, the Binding energy was -39.21 kcal/mol.
As to `CN1CCN(Cc2ccc(Nc3ncc(Cl)c(Nc4ccc(Cl)cc4S(=O)(=O)N4CCCC4)n3)cc2)CC1`, the Binding energy was -28.21 kcal/mol.
For the compound `CN1CCN(Cc2ccc(Nc3ncc(Cl)c(Nc4ccc(F)cc4S(=O)(=O)N4CCOCC4)n3)cc2)CC1`, the Binding energy is -41.26 kcal/mol.

Still in this data set, the particulars now being: docking parameter, 5-alkylpyrimidine-based inhibitors, Table 1; cited from earlier work.
Take `Cc1cnc(Nc2ccc(OCCN3CCCCC3)cc2)nc1-c1ccc(F)c(Cl)c1`: the Binding energy was -21.81 kcal/mol.
With `Cc1cnc(Nc2ccc(N(C)C3CCN(C)CC3)cc2)nc1-c1ccc(F)c(Cl)c1`, the Binding energy was -34.26 kcal/mol.
On to `CN1CCN(Cc2ccc(Nc3ncc(C4CC4)c(-c4ccc(F)c(Cl)c4)n3)cc2)CC1`, for which the Binding energy is -26.92 kcal/mol.
Regarding `Cc1cnc(Nc2ccc(N3CCN(C)CC3)c(F)c2)nc1-c1ccc(F)c(Cl)c1`, the Binding energy was -26.67 kcal/mol.
With `Cc1cnc(Nc2ccc(N3CCN(C)CC3)c(F)c2)nc1-c1ccc(F)cc1`, the Binding energy was -31.24 kcal/mol.
With `Cc1cnc(Nc2ccc(CN3CCN(C)CC3)cc2)nc1-c1ccc(F)c(Cl)c1`, the Binding energy was -38.24 kcal/mol.

The subject of the next data set is PSN-1. As to conditions: read-out: Cell viability IC50 PSN-1; PSN-1 cells; cited from earlier work.
Consider `CN1CCN(Cc2ccc(Nc3ncc(Cl)c(Nc4ccccc4S(=O)(=O)N(C)C)n3)cc2)CC1`, for which the IC50 was 6 nM.
